An excerpt weighted towards active compounds, which were near 0.78% of everything screened.
IL-2 act: activators of IL-2; 360,000 compounds, 0.065% hits; IL-2 activation reporter assay, cell-based qHTS; stimulated with anti-CD3/CD4/CD28 beads; in transgenic mouse T cells; activation, % (series mostly up to about 46 µM); in the data active = activation above about 50%; inconclusive = mostly about 30% to 49%; also: 0% is about no effect
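Screening format: compound pinned onto unstimulated transgenic mouse T cells, 60 min incubation, then anti-CD3/anti-CD4/anti-CD28 bead stimulation for 18 hours at 37 degrees C, followed by EGFP and DsRed detection.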
miR-21 reporter: raises the signal of a miR-21 reporter; HeLa miR-21 FLuc reporter, luciferase, 48 h; Potency, µM (top dose mostly 38.3 µM), for inactives: at the highest dose reporter change, positive = more light; AID 2288; 340,000 tested, under 10 active; active = well fitted rising curve with a large enough effect; inconclusive = small, poorly fitted or top-dose-only effect; inactive = no such curve, though single readings can be large or run the other way;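 note: % of control where 0% means no effect; miR-21 action dims this reporter so a rising signal means less miR-21 action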
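Using DMEM plus 10% FBS, HeLa miR-21-FLuc cells are incubated with test compounds (final up to about 40uM) for 48 hours; firefly luciferase signal is then imaged following reagent-mediated lysis.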
RXFP1 antagonist: blocks the human relaxin receptor RXFP1 | HEK293-RXFP1, relaxin-stimulated cAMP HTRF, 30 min; hits give low values | activity change, negative = inhibition, % at 57.5 µM | 350,000 compounds, 0.59% hits | AID 1259400;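 active = activity change of -60% or lower, but not beyond a set lower limit; inconclusive = change between -60% and -40%, or beyond the set limit; inactive = change above -40%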; also: % is scaled to controls: 0 for no effect and ±100 for the full control effect
TCR activator: activates T cell receptor signaling. primary human leukocytes, anti-CD3, IL-2 HTRF, 48 h. Potency, µM (doses to about 9.22 µM), for inactives: top-dose activation of IL-2 secretion, usual class: activators. 330,000 tested, under 10 active; also: % of control where 0% means no effect
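Using a-CD3 beads without co-stimulation, primary human leukocytes were exposed to compounds for 48 hr. An HTRF IL-2 kit measured the cytokine, with europium-to-d2 energy transfer producing emission at 665nm upon 320nm excitation.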
PINK1 expr mod: PINK1 expression modulation | PINK1 immunofluorescence, high-content cytometry, 24 h | AID 624263 | Potency, µM (top dose mostly 76.6 µM), inactives show top-dose activation (PINK1 increase), most hits filed as activators | 410,000 compounds, 0.2% hits; active = well fitted activation curve with a large enough effect; inconclusive = small, poorly fitted or top-dose-only effect; cell line not stated here; also: potency is read from the fitted curve at half-maximal effect; % of control where 0% means no effect; nearly all actives have a fitted effect of over 65% in size
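Measures PINK1 amount and localization on or inside mitochondria by immunofluorescence. Stable cells get compounds at 5 concentrations for 24 hours before fixation and staining; CCCP controls included.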
RXFP1 agonist: activates the human relaxin receptor RXFP1 | Q9HBX9 | HEK293T-RXFP1 cAMP TR-FRET, 30 min; response scale: percent of porcine relaxin response, buffer zero | Potency, µM (doses to about 57.5 µM), for inactives: at the highest dose activation, hits mostly activators | 370,000 compounds, 0.3% hits | AID 2676; also: potency is read from the fitted curve at half-maximal effect; % is scaled to controls: 0 for no effect and ±100 for the full control effect; nearly all actives have a fitted effect of over 60% in size
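cAMP rise read by TR-FRET after 30 min, 37C compound exposure (up to 58 uM) in RXFP1-transfected HEK293 cells with Ro 20174 present. EC50 from Hill-equation fits, with 29 nM porcine relaxin as 100% and buffer as basal.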
The depositor's hits bear a star; ? = inconclusive; · = not tested or not shown; [ ] = another dose, or the depositor's remark. Unless noted, calls follow the shape of the dose curve; as a rule, active = well fitted curve in the direction sought with a large enough effect; inconclusive = small, poorly fitted or top-dose-only effect, or another doubt; inactive = no such curve, though single readings can be large; an effect the other way counts as inactive or inconclusive.

Start of the data: the first 2 entries as a preview:
IL-2 act	miR-21 reporter	RXFP1 antagonist	SMILES	TCR activator	PINK1 expr mod	RXFP1 agonist
0	-5%	-71*	CCC(C)NC(=O)C(Cc1ccccc1)NS(=O)(=O)c1ccc2c(c1)CCC(=O)N2 (stereo not given)	2%	-1%	-1%
·	·	·	COc1ccc(/C=C/C(=O)N2CCc3c(cnc(C)c3CNS(=O)(=O)c3cccs3)C2)cc1	·	0%	·

All compounds of this part (from the top)
IL-2 act	miR-21 reporter	RXFP1 antagonist	SMILES	TCR activator	PINK1 expr mod	RXFP1 agonist
0	-5%	-71*	CCC(C)NC(=O)C(Cc1ccccc1)NS(=O)(=O)c1ccc2c(c1)CCC(=O)N2 (stereo not given)	2%	-1%	-1%
·	·	·	COc1ccc(/C=C/C(=O)N2CCc3c(cnc(C)c3CNS(=O)(=O)c3cccs3)C2)cc1	·	0%	·
-1	·	-72*	Cn1c(=O)c2[nH]c(SCCN3CCOCC3)nc2n(C)c1=S	-2%	0%	·
·	·	·	Cc1cc(C(=O)N(Cc2cc3cc4c(cc3nc2N2CCOCC2)CCC4)CC2CCCO2)c(=O)[nH]c1C (stereo not given)	·	0%	·
-2	-16%	-71*	CCOc1ccc2nc(Cl)c(C3CC(c4ccco4)=NN3S(C)(=O)=O)cc2c1 (stereo not given)	0%	0%	9%
·	·	·	COC(=O)C1CCN(Cc2ccc3c(c2)CN(C(=O)C2Cc4ccccc4O2)CCO3)CC1 (stereo not given)	·	2%	·
0	0%	-69*	COc1cc(NC(=O)C(=O)NCCN(C)C)c(OC)cc1Cl	-5%	-1%	11%
-3	1%	-6	COc1cc(NC(=S)NCCO)c(OC)cc1Cl	-1%	3%	0%
-1	·	-106*	COc1ccc(CN2CCN(C(c3ccc(F)cc3)c3ccc(F)cc3)CC2)c(OC)c1OC	-7%	?	·
·	·	·	O=C(Nc1cc(C(=O)NC2CCOCC2)c2c(c1)ncn2C1CCCC1)c1ccccc1	·	-1%	·
-1	15%	-76*	CCCc1cc(-c2[nH]ncc2-c2ccc3c(c2)OCCCO3)c(O)cc1O	-6%	-3%[38.3 µM]	-1%
-2	?	-33	CCCc1cc(-c2[nH]ncc2-c2ccc(C(=O)OCC)o2)c(O)cc1O	6%	-7%[38.3 µM]	4%
·	·	·	COc1ccc(OC)c(-c2ccnc(-n3ncc(C(=O)NC(C)(C)CO)c3C3CC3)n2)c1	·	1%	·
1	-4%	17	CC(C)n1c(SCC(=O)N2CCN(C(=O)c3ccco3)CC2)nc2c1c(=O)n(C)c(=O)n2C	5%	0%	14µM*
0	-2%	-66*	CC(NC(=O)C(=O)N1CCCCC1)C(c1cccs1)N1CCN(Cc2ccccc2)CC1 (stereo not given)	2%	1%	3%
0	0%	?	CCN1CCN(C(c2cccs2)C(C)NC(=O)C(=O)N2CCCCC2)CC1 (stereo not given)	8%	0%	1%
2	26%	5	Cc1cc(NCc2ccccn2)n2nc(C)c(-c3ccccc3)c2n1	0%	6%	1%
0	1%	-4	Cc1nn2c(NCc3ccccn3)cc(C(C)(C)C)nc2c1-c1ccccc1	-4%	18µM*	0%
0	-18%	1	CCc1ccc2nc3c(c(C(=O)O)c2c1)CCC3	2%	2%[38.3 µM]	2%
-1	0%	52	Cc1cc(Br)c2nc3c(c(C(=O)O)c2c1)CCCCC3	-23%[46.1 µM]	-1%	2.2µM*
·	·	·	CCNC(=O)c1sc2ncnc(NCCCN3CCOCC3)c2c1C	·	-1%	·
-3	7%	-38	FC(F)Sc1ccc(NC(=S)NCc2ccccc2)cc1	2%	14µM*	1%
-1	?	-6	FC(F)Sc1ccc(NC(=S)NC(c2ccccc2)c2ccccc2)cc1	-2%	?	0%
·	·	·	Cc1oc(-c2ccccc2NC(=O)c2ccccn2)nc1CNC(=O)c1ccc(Oc2ccccc2)o1	·	0%	·
·	?	-60*	O=C(CCS(=O)(=O)c1nc(-c2cccs2)cc(C(F)(F)F)n1)Nc1ccc(F)c(Cl)c1	·	4%	0%
-2	-65%	5	N/C(=N\OC(=O)COc1ccc2ccccc2c1Br)c1ccccn1	-7%	-1%	16µM*
1	-4%	8	N/C(=N\OC(=O)COc1ccccc1)c1cccnc1	-2%	3%	-1%
·	-30%	·	N/C(=N\OC(=O)COc1ccc2ccccc2c1Br)c1cccnc1	·	·	16µM*
3	-30%	11	N/C(=N\OC(=O)COc1ccc(Br)cc1Cl)c1ccccn1	3%[46.1 µM]	0%	2%
·	·	·	CO[C@H]1[C@H](NC(=O)C(C)C)c2ccccc2C12CCN(Cc1c(C)nn(C)c1Cl)CC2	·	1%	·
·	25%	-63*	CCOC(=O)c1c(NC(=O)c2ccc(S(=O)(=O)N3CCC(C)CC3)cc2)sc2c1CCN(C)C2	·	21%	-36%
-2	-10%	-5	CCOC(=O)N1CCN(S(=O)(=O)c2ccc(C(=O)Nc3sc4c(c3C(=O)OC)CCN(C)C4)cc2)CC1	10%	-1%	2%
94*	0%	3	CCN(CC)C(=O)Cn1c(=O)c2ccccc2n2c(=S)sc(-c3cccc(C)c3)c12	1%[46.1 µM]	?	2%
-1	0%	-72*	O=C(NC(=S)Nn1cnc2c(cnn2-c2ccccc2)c1=O)c1ccc(Cl)cc1	15%[46.1 µM]	2%	-1%
-1	-1%	·	O=C(NC(=S)Nn1cnc2c(cnn2-c2ccccc2)c1=O)c1ccc(Oc2ccccc2)cc1	7%[46.1 µM]	5%	0%
·	·	6	Cc1ncc([N+](=O)[O-])n1C	·	·	·
3	12%	-19	Cn1nc(C(F)(F)F)c(-c2ccc(F)cc2)c1NC(=O)c1ccco1	-7%	6%	-4%
-1	?	-61*	Cn1nc(C(F)(F)F)c(-c2ccc(Br)cc2)c1NC(=O)Nc1ccc(F)cc1F	-1%	?	5%
0	?	-6	Cc1ccc(NC(=O)c2ccccc2NS(=O)(=O)c2ccc(Cl)s2)cc1S(=O)(=O)N1CCOCC1	4%[46.1 µM]	40µM*	0%
3	-13%	-73*	O=C(CC1C(=O)N(c2ccccc2)C(=S)N1c1ccccc1)c1ccc(Br)cc1 (stereo not given)	1%[46.1 µM]	-1%	1%

As entered above:
CCCc1cc(-c2[nH]ncc2-c2ccc3c(c2)OCCCO3)c(O)cc1O in TCR activator is entered as -6%
Cc1ncc([N+](=O)[O-])n1C in RXFP1 antagonist is entered as 6
FC(F)Sc1ccc(NC(=S)NCc2ccccc2)cc1 in RXFP1 agonist is entered as 1%
O=C(CCS(=O)(=O)c1nc(-c2cccs2)cc(C(F)(F)F)n1)Nc1ccc(F)c(Cl)c1 in PINK1 expr mod is entered as 4%
CCN(CC)C(=O)Cn1c(=O)c2ccccc2n2c(=S)sc(-c3cccc(C)c3)c12 in miR-21 reporter is entered as 0%

(list continues)
IL-2 act	miR-21 reporter	RXFP1 antagonist	SMILES	TCR activator	PINK1 expr mod	RXFP1 agonist
8	-3%	-109*	O=C(CN1C(=O)/C(=C/c2ccc(C(F)(F)F)cc2)Sc2ccccc21)NCCCN1CCOCC1	-12%	-1%	0%
5	1%	-10	CCc1ccc(/C=C2/Sc3ccccc3N(CC(=O)NCCCN3CCOCC3)C2=O)cc1	1%	1%	0%
-4	3%	5	Cc1ccccc1CN1C(=O)/C(=C\c2ccc(C(=O)NCCN3CCOCC3)cc2)Sc2ccccc21	-6%	0%	2%
4	23%	-87*	Cc1cccc(CN2C(=O)/C(=C\c3ccc(C(=O)NCCN4CCOCC4)cc3)Sc3ccccc32)c1	1%	2%	2%
-5	?	·	CCCCn1c(/N=C/c2ccccc2NS(=O)(=O)c2ccc(C)cc2)nc2ccccc21	-8%[46.1 µM]	?	-1%

Source: PubChem BioAssay
